Among the data in ChEMBL document CHEMBL5212743, “Selectivity Literature for EUbOPEN Chemogenomics Library wave 3” (2023) are Ki values, retold here.

The target in this assay is Mu-type opioid receptor (Homo sapiens, UniProt P35372). Description: Selectivity interaction (Enzyme panel (GPCRS, ion channels, and transporters)) EUB0000194b OPRM1.

The term Ki denotes a measure of affinity in units of concentration, obtained from inhibition or displacement. The low end stands for tighter binding, the high end for weaker binding. In the case of `COc1cc2c(NC3CCN(C(C)C)CC3)nc(N3CCC(F)(F)CC3)nc2cc1OCCCN1CCCC1`, the Ki is above 10 µM.
